In publication PMC5384220, “Highly selective inhibition of histone demethylases by de novo macrocyclic peptides” (Nature Communications, 2017) one finds IC50 data, which are given here for four substances.

The experiment addresses T1, KDM3A (Homo sapiens, UniProt Q9Y4C1).
T1 construct: KDM3A 515-1317 Baculovirus; made in house
T1 sequence (Q9Y4C1 515-1317): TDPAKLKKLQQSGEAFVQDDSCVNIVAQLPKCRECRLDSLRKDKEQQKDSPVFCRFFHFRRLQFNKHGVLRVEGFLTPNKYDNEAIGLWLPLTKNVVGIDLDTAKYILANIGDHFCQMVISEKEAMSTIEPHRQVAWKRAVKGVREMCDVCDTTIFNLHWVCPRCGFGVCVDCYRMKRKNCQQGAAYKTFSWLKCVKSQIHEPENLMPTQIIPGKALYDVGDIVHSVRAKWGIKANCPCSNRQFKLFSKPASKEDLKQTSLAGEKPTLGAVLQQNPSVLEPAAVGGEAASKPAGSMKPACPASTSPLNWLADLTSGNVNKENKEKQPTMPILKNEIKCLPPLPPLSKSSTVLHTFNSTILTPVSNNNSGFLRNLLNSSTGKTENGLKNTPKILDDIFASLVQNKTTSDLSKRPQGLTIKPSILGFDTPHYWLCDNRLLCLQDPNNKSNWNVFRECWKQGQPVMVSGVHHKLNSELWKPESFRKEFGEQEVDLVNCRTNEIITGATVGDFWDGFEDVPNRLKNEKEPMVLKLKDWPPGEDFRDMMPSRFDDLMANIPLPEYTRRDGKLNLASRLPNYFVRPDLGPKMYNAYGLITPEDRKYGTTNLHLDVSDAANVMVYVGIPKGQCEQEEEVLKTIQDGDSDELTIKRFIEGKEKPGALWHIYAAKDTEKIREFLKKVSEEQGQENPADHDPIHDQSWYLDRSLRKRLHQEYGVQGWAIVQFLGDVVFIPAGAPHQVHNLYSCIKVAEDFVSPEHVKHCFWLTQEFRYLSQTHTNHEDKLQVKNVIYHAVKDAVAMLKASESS
In words: AlphaScreen demethylase activity assay, KDM3A. As to conditions: read-out: IC50 KDM3A. The format is biochemical. As to the method: IC50 values for KDM2–6 were measured using an AlphaScreen assay as described. The appropriate KDM (5 μl) was pre-incubated with an inhibitor (0.1 μl in DMSO) or DMSO for 15 min before the addition of 5 μl mixture of biotinylated peptide substrates, 2OG, ferrous ammonium sulfate (1–10 μM final) and ascorbate (100 μM final) to initiate the demethylation reaction. The reaction was quenched with 5 μl of 30 mM EDTA at predetermined reaction times for each enzyme (initial rate). Demethylated product was detected by addition of 5 μl of AlphaScreen donor and acceptor beads (AlphaScreen General IgG Detection Kit, 0.02 mg ml^−1 final each) pre-incubated with antibody. The plates were read after 1 h incubation in a BMG Labtech Pherastar FS plate reader. Data were normalized to a no enzyme control and IC50 values were calculated using nonlinear regression curve fits using GraphPad Prism. Assay buffer (50 mM HEPES pH 7.5, BSA (0.1% w/v) and Tween-20 (0.01% v/v)) was used throughout, except for dilution of stock ferrous ammonium sulfate solutions where water was used. The enzyme, substrate and antibody concentrations used are described in Supplementary Table 3. A fluorescence-based LSD1 inhibitor screening assay kit (Cayman, 700120) was used for KDM1/LSD1 assay. Assays for prolyl hydroxylase domain 2 and factor inhibiting HIF using matrix-assisted laser desorption/ionization–time of flight MS were performed as previously described. Prism 5.0 (GraphPad) was used to generate and to fit dose–response curves. IC50 values were determined by plotting percentage inhibition versus compound concentration relative to positive (vehicle) and negative (no enzyme) controls, using normalized dose–response (variable slope) fit. The reported values are the mean of multiple experiments (n≥3). The formaldehyde dehydrogenase coupled KDM assay was used to determine the mode of inhibition, using 0.5 μM His-KDM4A1–359. Prism 5.0 (GraphPad) was used to fit in mix-mode inhibition, to determine the kinetic parameters. Binding constants for CPs and H3(1–15)K9me3 were measured using biolayer interferometry (OctetRed 384, ForteBio) in buffer (50 mM HEPES (pH 7.5), 150 mM NaCl, 10 μM ammonium iron(II) sulphate). His-KDM4A1–359-Bio (70 nM) was immobilized onto super streptavidin biosensor and subjected to different peptide concentrations in buffer. Data analysis was performed using ForteBio Data Aalysis (v6.4).
Construct Expression [E] / nM [2OG] / µM [Fe(II)] / µM Peptide / nM Peptide sequence Antibody Source […]
Supplementary Table 3. AlphaScreen assay parameters for 2OG oxygenases used for this study. The table was dapted from 10. Assays were performed at 2OG concentration near the 2OG Km values determined experimentally.11 All enzymes were expressed and purified as described.10-12
Consider DY(meV)YNTRSDAWRWY(meT)(meC) [CP2.2], for which the IC50 (usually the point on the concentration scale where inhibition reaches its midpoint) was 7 µM.

LYLKSRRSGLTWIPC [CP4]: the IC50 is 9.9 µM.

Take DYVYNTRSGWRWYTC [CP2]: the IC50 was over 10 µM.

In the case of LYSKYTQSGVRWVC [CP5], the IC50 is over 10 µM.
